Only a part is listed here, and it is no random draw. The source made the active and inactive calls.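 How the source made its calls: active means inhibition above about 50% when tested at 10 µM (limit read from the data); inactive means the rest.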

Protein sequences, listed by entry. Tags and fused reporters are not part of them.
UniProt P08659, whole entry, looked up: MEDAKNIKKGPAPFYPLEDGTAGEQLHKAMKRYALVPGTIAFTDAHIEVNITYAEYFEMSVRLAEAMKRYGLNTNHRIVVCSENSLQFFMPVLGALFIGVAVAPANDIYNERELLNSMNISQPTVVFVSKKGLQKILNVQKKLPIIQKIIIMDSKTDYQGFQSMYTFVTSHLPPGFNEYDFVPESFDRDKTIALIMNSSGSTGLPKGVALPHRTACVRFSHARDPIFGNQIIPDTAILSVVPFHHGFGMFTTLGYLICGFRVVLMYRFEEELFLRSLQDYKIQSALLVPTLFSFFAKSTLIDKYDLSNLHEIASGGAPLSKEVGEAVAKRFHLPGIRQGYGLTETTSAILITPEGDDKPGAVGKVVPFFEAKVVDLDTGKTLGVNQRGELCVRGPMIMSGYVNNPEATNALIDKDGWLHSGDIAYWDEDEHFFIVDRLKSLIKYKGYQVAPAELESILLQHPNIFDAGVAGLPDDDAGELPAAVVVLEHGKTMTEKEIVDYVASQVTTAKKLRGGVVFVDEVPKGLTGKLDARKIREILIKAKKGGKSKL

This assay has as its target Luciferin 4-monooxygenase (Photinus pyralis) (UniProt P08659). Put plainly: firefly luciferase enzyme inhibitors, primary screen, artefact control for luciferase-based inhibitor screens, biochemical, luminescence, ATPLite (AID 1006). The settings on record: 10 min, at 10 µM, active compounds read high. On the technique in general: Cellular ATP, detected with luciferase, serves as a proxy for viable cell number.
`Fc1ccccc1NC1CCN(Cc2ccccc2)CC1`: the inhibition (usually the drop in the measured response relative to a control, in per cent) was inactive: -12.8%.
Next, `CCN1CCC(Nc2cccc(F)c2)CC1`: inactive: -7%; `CN(C)c1ccc(C(=O)NCC2(N3CCCCC3)CCCCC2)cc1`: inactive: -5.3%.
The result for `CCOc1ncccc1C(=O)NCC1(N2CCOCC2)CCCCC1` reads inactive: -6.4%; that for `CC(C)(C)OC(=O)N1CCC(Nc2ccccc2)CC1`, inactive: -4.2%.
The result for `CCC(CO)(C(=O)OC1CN2CCC1CC2)c1ccccc1` (stereo not given) reads inactive: -7%.
For `COc1cc(OC)cc(C(=O)NCC2(N3CCOCC3)CCCCC2)c1`, the inhibition is inactive: -8.9%.
Next, `COc1ccc(C(=O)NCC2(N3CCOCC3)CCCCC2)cc1OC`: inactive: -7.5%; `N/C(=N\O)c1c(N)no[n+]1[O-]`: inactive: -4%; `O=C(OC1CN2CCC1CC2)C1c2ccccc2C=Cc2ccccc21` (stereo not given): inactive: -7.6%.
The result for `N#Cc1ccc(C(=O)NCC2(N3CCCCC3)CCCCC2)cc1` reads inactive: -11.1%.
The result for `c1ccc(CN2CCC(Nc3ccccc3)CC2)cc1` reads inactive: 0.1%; that for `O=C(NCC1(N2CCCCC2)CCCCC1)c1cccc([N+](=O)[O-])c1`, inactive: -7.6%; that for `N#CC1(Nc2ccccc2)CCN(CCc2ccccc2)CC1`, inactive: -6.5%.
In the case of `CN1CCN(CCOC(=O)C(O)(c2ccccc2)c2ccccc2)CC1`, the inhibition was inactive: -5.8%.
Next, `COc1ccc(NC2CCN(C(=O)OC(C)(C)C)CC2)cc1`: inactive: 0.6%; `O=C(NCC1(N2CCOCC2)CCCCC1)c1cc(=O)[nH]c2ccccc12`: inactive: -1.1%.
The result for `COc1ccc(CN(CCCl)CCCl)cc1Cl` reads inactive: -6%; that for `CN(C)c1cccc(C(=O)NCC2(N3CCCCC3)CCCCC2)c1`, inactive: -6.1%; that for `CC(C)c1ccc(NC2CCN(C(=O)OC(C)(C)C)CC2)cc1`, inactive: -4.7%.
In the case of `COc1ccc(C(=O)NCC2(N3CCCCC3)CCCCC2)c(OC)c1OC`, the inhibition is inactive: -4.1%.
Next, `O=C(NCC1(N2CCOCC2)CCCCC1)c1cc2ccccc2o1`: inactive: -5.6%; `CCOC(=O)N1CCC(Nc2ccc(OC)cc2)CC1`: inactive: -2%; `O=C(OC1CN2CCC1CC2)C1c2ccccc2Oc2ccccc21` (stereo not given): inactive: -3.3%.
Next, `COc1ccc(NC2CCN(CCc3ccccc3)CC2)c(OC)c1`: inactive: -8.7%.

The record behind these values is PubChem BioAssay AID1006 (Sanford-Burnham Center for Chemical Genomics, 2008).
